The entries are a selection whose mix differs from that of the whole data set. Inconclusive results are not listed. A call without a number means that no potency is given here. Activity calls are given as the source filed them. The call rests on the fitted dose curve; in most records, active means well fitted inhibition curve with a large enough effect; inconclusive means small, poorly fitted or top-dose-only effect, or another doubt; inactive means no such curve, though single readings can be large or run the other way.
molecular target: Polyunsaturated fatty acid lipoxygenase ALOX12 (Homo sapiens) (UniProt P18054); experiment: Primary qHTS assay for inhibitors of human arachidonate 12S-lipoxygenase (ALOX12): Round 2; conditions: purified 12hLO, xylenol orange hydroperoxide absorbance; series mostly up to 108 µM
From the text: Assay Provider: Theodore R. Holman Ph.D. University of California, Santa Cruz, California Human lipoxygenase 12hLO is a member of the closely related lipoxygenase family of enzymes which catalyze the site-specific oxidation of arachidonic acid to various hormone precursor molecules and as such is a candidate for drug development in a variety of disease areas, such as cancer and inflammation. Inhibition of 12hLO activity was screened by utilizing arachidonic acid as a substrate. The extent of hydroperoxide product formation was measured by a secondary chromogenic reaction in which xylenol orange (XO, Sigma-Aldrich, cat. number 39,818-7) reacts with the ferric ions produced from the reaction between the hydroperoxide and ferrous ions. The Fe (III)-XO complex is characterized with red-shifted absorbance at 560 nm. A purified preparation of human 12hLO was supplied by Dr. Holman laboratory, University of California, Santa Cruz.
PROTOCOL TABLE SEQUENCE No. (e.g., 1, 2, 3, etc.); […] (e.g., Cells, Incubation, Reagent, etc.); VALUE; DESCRIPTION 1; Enzyme; 3 uL; 150 nM 12hLO enzyme solution dispensed in 1536-well Greiner black, clear bottom plates. 2; Compound; 23 nL; compounds and controls were added. 3; Incubate; 15 min; room temperature. 4; Substrate; 1 uL; 40 uM arachidonic acid (final concentration). 5; Incubate; 30 min; room temperature. 6; Reagent; 4 uL; Fe-XO solution was added to each well. 7; Incubation; 30 min; room temperature 8; Detector; absorbance; Read 1 at 405 nm absorbance using ViewLux (Perkin-Elmer) CCD imager. 9; Detector; absorbance; Read 2 at 573 nm absorbance using ViewLux (Perkin-Elmer) CCD imager. NOTES (numbers refer to sequence above) 1; 150 nM 12hLO (final concentration) in buffer solution (25 mM Hepes, 0.01% Triton X-100, pH 7.0) was dispensed in columns 1, 2, 5-48. Column 1 is neutral (100% activity). Buffer only was dispensed in columns 3 and 4 as no enzyme negative controls. The plates were covered with metal lids with gas-exchange holes. 2; Compounds were pin transferred via a Kalypsys Pin Tool (Wako USA) in column 5-48. Control compound was transferred in column 2, titration of nordihydroguaiaretic acid (NDGA, Sigma-Aldrich, N5023) with top concentration of 20 mM in DMSO then 1:3 dilution in duplicate. Dilution factor of 23 nL into 4 uL final assay volume. 3; Covered assay plates were incubated for 15 min at room temperature. 4; Substrate was added to start the reaction; 40 uM arachidonic acid (Sigma-Aldrich, St. Louis, MO) was dispensed throughout the plate. 6; Chromogenic detection reagent solution (divalent iron/xylenol orange, Fe-XO) was added to each well: 200 uM xylenol orange, 300 uM ferrous ammonium sulfate prepared freshly in 50 mM sulfuric acid. 8, 9; Two absorbance readouts were obtained at 405 nm and at 573 nm using a ViewLux high-throughput CCD plate imager (Perkin-Elmer). The 573 to 405 (Read 2 / Read 1) absorbance ratio was used to compute reaction progress.
Potency means the concentration at half of the fitted maximal effect.

Protein sequences, listed by entry. Tags and fused reporters are not part of them. Lines headed by an entry give the natural chain unless they say otherwise; changes in a name come on top.
UniProt P18054: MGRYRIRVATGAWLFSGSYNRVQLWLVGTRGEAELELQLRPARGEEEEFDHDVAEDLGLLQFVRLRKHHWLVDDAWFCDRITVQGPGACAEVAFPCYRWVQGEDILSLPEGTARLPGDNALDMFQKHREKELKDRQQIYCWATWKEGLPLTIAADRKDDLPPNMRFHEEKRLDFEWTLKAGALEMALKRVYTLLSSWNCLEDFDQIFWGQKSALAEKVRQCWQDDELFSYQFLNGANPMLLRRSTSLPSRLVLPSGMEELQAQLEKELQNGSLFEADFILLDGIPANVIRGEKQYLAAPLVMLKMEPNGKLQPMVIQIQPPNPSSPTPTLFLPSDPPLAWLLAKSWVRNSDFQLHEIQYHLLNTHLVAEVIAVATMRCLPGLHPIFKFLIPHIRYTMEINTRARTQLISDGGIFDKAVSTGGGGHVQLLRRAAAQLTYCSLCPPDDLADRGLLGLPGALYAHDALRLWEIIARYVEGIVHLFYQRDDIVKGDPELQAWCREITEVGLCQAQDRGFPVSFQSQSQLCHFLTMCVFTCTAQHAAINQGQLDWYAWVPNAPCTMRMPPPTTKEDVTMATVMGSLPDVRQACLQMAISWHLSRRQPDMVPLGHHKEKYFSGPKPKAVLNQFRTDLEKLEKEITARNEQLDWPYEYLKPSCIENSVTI

Compound | Potency
O=C(COc1ccccc1)OC1CN2CCC1CC2 (stereo not drawn) | inactive
O=C(Nc1ccncc1[N+](=O)[O-])c1ccc([N+](=O)[O-])cc1[N+](=O)[O-] | inactive
Cc1cccc(C(=O)NC(Sc2ccccc2)C(Cl)(Cl)Cl)c1 (stereo not drawn) | inactive
O=C(O)C(=O)c1ccc(N(CCCl)CCCl)cc1 | inactive
COP1(=S)c2c(C)nn(CCC#N)c2N=C(c2ccc(F)cc2)N1C (stereo not drawn) | inactive
COC(=O)C1(C)COP(=O)(N2CCCC2)OC1 (stereo not drawn) | inactive
CCC(C)N(CC(C)C)C(=S)SC(NC(C)=O)C(Cl)(Cl)Cl (stereo not drawn) | inactive
O=C(OC1CN2CCC1CC2)c1cccc([N+](=O)[O-])c1 (stereo not drawn) | inactive
COP(=O)(OC)N1CC1c1ccccc1 (stereo not drawn) | inactive
CC1CCNP(=O)(N(CCCl)CCCl)O1 (stereo not drawn) | inactive
CCOC(=O)Nc1ccc([As](=O)(O)O)c(O)c1 | inactive
O=C(O)C(O)c1ccc(N(CCCl)CCCl)cc1 (stereo not drawn) | inactive
O=[N+]([O-])c1ccc(Nc2ccc(Oc3ccc([N+](=O)[O-])cc3[N+](=O)[O-])cc2)c([N+](=O)[O-])c1 | inactive
O=P(Nc1ccccn1)(c1cccc2ccccc12)c1cccc2ccccc12 | inactive
CCOC(=O)Nc1cccc([As](=O)(O)O)c1 | inactive
Cc1ccc2nc3c(c(C)c2c1)CC(C(Cl)Cl)S3 (stereo not drawn) | inactive
[N-]=[N+]=NC1CCCCC1NC(=O)c1cc([N+](=O)[O-])cc([N+](=O)[O-])c1 (stereo not drawn) | inactive
Cc1ccc(OP(=O)(Nc2ccc([N+](=O)[O-])cn2)Oc2ccc(C)cc2)cc1 | inactive
C[As](=O)(O)c1cccc(C(=O)O)c1 | inactive
O=[As](O)(c1ccc(O)cc1)c1ccccc1O | inactive
COc1cc(C(=O)NCC2(N3CCOCC3)CCCCC2)ccc1OCC(C)C | inactive
O=[N+]([O-])c1ccc(-c2cc([N+](=O)[O-])c(O)c([N+](=O)[O-])c2)cc1 | active: 39.8 µM
O=C(OC1CN2CCC1CC2)c1cccc2[nH]cnc12 (stereo not drawn) | inactive
CCN(CC)C(=S)SC(NC=O)C(Cl)(Cl)Cl (stereo not drawn) | inactive

Compound | Potency
CC(C)NC(=O)NP(=O)(Oc1ccccc1)Oc1ccccc1 | inactive
CC(C)c1ccc(OP(=O)(Nc2ccccn2)Oc2ccccc2F)cc1 (stereo not drawn) | inactive
COC(=O)C1(C)COP(=O)(N2CCCCCC2)OC1 (stereo not drawn) | inactive
ClCCSc1nnc(-c2cccnc2)o1 | inactive
COc1ccc2nc(NP(=O)(c3ccccc3)c3ccccc3)sc2c1 | inactive
COc1cc(I)ccc1[As](=O)(O)O | inactive
O=P1(N(CCCl)CCCl)OCCCN1CCCl (stereo not drawn) | inactive
O=P1(N(CCCl)CCCl)Nc2ccccc2N1 | inactive
O=C(OC1CN2CCC1CC2)C12CC3CC(CC(C3)C1)C2 (stereo not drawn) | inactive
Cc1cc(=O)[nH]c(N[N+](=O)[O-])n1 | inactive
Cc1c2c(nc3ccccc13)SC(C(Cl)Cl)C2 (stereo not drawn) | inactive
COc1ccc(N/C(=N/P(=O)(N2CCOCC2)N2CCOCC2)N2CCOCC2)cc1 | inactive
O=[N+]([O-])c1cc(Oc2ccc([N+](=O)[O-])cc2C(F)(F)F)cc([N+](=O)[O-])c1 | inactive
BrCC1CN=C(Nc2ccccc2)S1 (stereo not drawn) | active: 0.891 µM
Fc1ccc(NC2=NCC(CI)S2)c(F)c1 (stereo not drawn) | active: 7.94 µM
Cc1cccc(OCC(=O)OC2CN3CCC2CC3)c1 (stereo not drawn) | inactive
COc1cc(C(=O)NCC2(N3CCOCC3)CCCCC2)cc(Cl)c1OC(C)C | inactive
O=[As](O)(O)c1cccnc1 | inactive
CS(=O)(=O)c1ccc(Cl)c(NC(=O)COC(=O)C(O)(c2ccccc2)c2ccccc2)c1 | inactive
COc1cc(C2NCCC3(OCCO3)C2(C)C)cc(OC)c1OC (stereo not drawn) | inactive
CCOP(=O)(Nc1cccc2ccccc12)OCC | inactive
CCCOP(=S)(Nc1nc(N)cc(=O)[nH]1)OCCC | inactive
Nc1cccc2c([As](=O)(O)O)cccc12 | inactive
Nc1ccccc1[As](=O)(O)c1ccccc1 | inactive

Compound | Potency
CCn1c(=O)n([C@@H]2CCN(CC3CCCCCCC3)C[C@@H]2CO)c2ccccc21 | inactive
O=C(O)COc1ccc([As](=O)(O)O)cc1[N+](=O)[O-] | inactive
CCOP1(=S)c2c(C)nn(CCC#N)c2N=C(c2ccccc2F)N1C (stereo not drawn) | inactive
O=P(Nc1nccs1)(Oc1ccccc1)Oc1ccccc1 | inactive
CN(C)C(=O)c1cc([N+](=O)[O-])cc2c1-c1c(cc([N+](=O)[O-])cc1[N+](=O)[O-])C2=O | inactive
O=[N+]([O-])c1ccc2c(c1)nnn2O | inactive
CN(C(=O)Cc1ccc(Cl)c(Cl)c1)[C@H]1CC[C@@]2(CCCO2)C[C@@H]1N1CCCC1 | inactive
N#CCCN(C(=O)COC(=O)C(O)(c1ccccc1)c1ccccc1)c1ccc(F)cc1 | inactive
CN(C(=O)Cc1ccccc1)[C@@H]1CC[C@]2(CCCO2)C[C@H]1N1CCCC1 | inactive
CCOP1(=S)c2c(C)nn(CCC#N)c2N=C(c2ccc(F)cc2)N1C (stereo not drawn) | inactive
NC(=O)Nc1ccc([As](=O)(O)O)cc1 | inactive
O=C(/C=C/c1ccccc1)OC1CN2CCC1CC2 (stereo not drawn) | inactive
CCCC1OP(=O)(Nc2ccccc2)OCC1CC (stereo not drawn) | inactive
CN(C)C1(CNC(=O)c2ccc(S(C)(=O)=O)cc2)CCCCC1 | inactive
Cc1nn(-c2ccccc2)c2c1P(=O)(N1CCOCC1)N(C)C(c1ccccc1)=N2 (stereo not drawn) | inactive
CC1CCC(C(C)C)C(OP(=O)(Nc2ccccn2)c2ccccc2)C1 (stereo not drawn) | inactive
Cc1ccc(C(=O)OC2CN3CCC2CC3)cc1 (stereo not drawn) | inactive
O=P1(Nc2ccc(Br)cn2)COc2ccccc2OC1 | inactive
NS(=O)(=O)c1cccc(NC(=O)COC(=O)C(O)(c2ccccc2)c2ccccc2)c1 | inactive
O=[As](O)(c1cccs1)c1cccs1 | inactive
Cc1ccc(OCC(=O)OC2CN3CCC2CC3)cc1 (stereo not drawn) | inactive
Nc1cccc([As](=O)(O)c2ccccc2)c1 | inactive
O=P1(Nc2ncccn2)COc2ccccc2OC1 | inactive
O=P1(N(CCCl)CCCl)NCCC(C(F)(F)F)O1 (stereo not drawn) | inactive

Compound | Potency
CC(C)(C)C(=O)NC(Sc1ncccn1)C(Cl)(Cl)Cl (stereo not drawn) | inactive
CN(CCCl)Cc1cc(Cl)c(NC2=NCCN2)c(Cl)c1 | inactive
CCOP(=O)(Nc1ccc(C)cn1)OCC | inactive
O=P1(Nc2ccccn2)COc2ccccc2OC1 | inactive
CCC1=CC2Cc3nc4ccc(Cl)cc4c(N)c3C(C1)C2 (stereo not drawn) | inactive
CCOP(=O)(NC(=NC(C)c1ccccc1)NC(C)c1ccccc1)OCC (stereo not drawn) | inactive
CC(C)/C=N\N=C(\N)N[N+](=O)[O-] | inactive
CN(C(=O)Cc1ccc(Cl)c(Cl)c1)[C@@H]1CCCC[C@H]1N1CCCC1 | inactive
CN(C(=O)Cc1ccc(Cl)c(Cl)c1)C1CCCC[C@@H]1N1CCCC1 (stereo partly drawn) | inactive
COc1ccccc1CNC(=O)COC(=O)C(O)(c1ccccc1)c1ccccc1 | inactive
c1nnnn1CCn1cnnn1 | inactive
CC(C)C(=O)NC(Sc1ccccc1)C(Cl)(Cl)Cl (stereo not drawn) | inactive
O=P(Nc1nccs1)(c1ccccc1)c1ccccc1 | inactive
O=P(Nc1nc2ccccc2s1)(c1ccccc1)c1ccccc1 | inactive
C[C@H]1OP(=O)(Oc2ccccc2)[C@H](O)[C@H](O)[C@H]1N=[N+]=[N-] (stereo partly drawn) | inactive
Nc1ccc(CCCCOc2ccccc2)cc1 | inactive
CN(C)C1(CNC(=O)c2ccc(Cl)c(S(N)(=O)=O)c2)CCCCC1 | inactive
C/C(N)=N\P(=O)(OCc1ccccc1)OCc1ccccc1 | inactive
Nc1ccc([As](=O)(O)c2ccc([N+](=O)[O-])cc2)cc1 | inactive
O=C(OC1CN2CCC1CC2)c1cccc(Cl)c1 (stereo not drawn) | inactive
O=[N+]([O-])c1ncn(CCn2cnc([N+](=O)[O-])n2)n1 | inactive
CC(=O)NC(SC(=S)N(C)C)C(Cl)(Cl)Cl (stereo not drawn) | inactive
O=[As](O)(c1ccccc1)c1ccc(O)cc1 | inactive
O=P1(N(CCCl)CCCl)OCCC2CCCCN21 (stereo not drawn) | inactive

Compound | Potency
O=C(NC1CCS(=O)(=O)C1)NP(=S)(Oc1ccccc1)Oc1ccccc1 (stereo not drawn) | inactive
c1ccc(-c2nn[nH]n2)c(-c2nn[nH]n2)c1 | inactive
Cc1ccc(NP(=O)(Oc2cccc(C)c2)Oc2cccc(C)c2)nc1 | inactive
CN(C)C(=O)Oc1noc2ccccc12 | inactive
COC(=O)c1cc2c(s1)N=C(c1ccccc1)N(C)P2(=O)N1CCOCC1 (stereo not drawn) | inactive
CCn1nc(C(=O)NCC2(N3CCCCC3)CCCCC2)c2ccccc2c1=O | inactive
Cc1ccc(OP(=O)(Nc2ccccn2)Oc2ccc(C)cc2)cc1 | inactive
CC(=O)NC(SC(=S)N(CC(C)C)CC(C)C)C(Cl)(Cl)Cl (stereo not drawn) | inactive
O=C(OC1CN2CCC1CC2)c1ccccc1 (stereo not drawn) | inactive
CCC(=O)N1C2C3N(C(=O)CC)C1C1N(C(=O)CC)C(C(N1C(=O)CC)N3C(=O)CC)N2C(=O)CC | inactive
CC(C)(C)C(=O)NC(Sc1ccccc1)C(Cl)(Cl)Cl (stereo not drawn) | inactive
CCOc1ccc(C2=NCC(CBr)S2)cc1 (stereo not drawn) | inactive
CC(=O)Nc1ccc(Oc2c([N+](=O)[O-])cc([N+](=O)[O-])cc2[N+](=O)[O-])cc1 | inactive
CC(=O)c1ccc(N2CC2c2ccncc2)cc1 (stereo not drawn) | inactive
COC(=O)C1(C)COP(=O)(NCc2ccccc2)OC1 (stereo not drawn) | inactive
Cc1ccccc1CN(C)C(=O)COC(=O)C(O)(c1ccccc1)c1ccccc1 | inactive
C[C@@H]1C=CCP(=O)(Oc2ccccc2)O1 (stereo partly drawn) | inactive
C[C@H]1OP(=O)(Oc2ccccc2)C[C@@H]2O[C@@H]21 (stereo partly drawn) | inactive
COc1ccccc1OP(=O)(Nc1ccc(C)cn1)Oc1ccccc1OC | inactive
Clc1ccc(Cl)c(NC2=NCC(CBr)S2)c1 (stereo not drawn) | inactive
NC(=O)c1cc([N+](=O)[O-])cc([N+](=O)[O-])c1N | inactive
CN(C(=O)Cc1ccc(Cl)c(Cl)c1)[C@H]1CCCC[C@H]1N1CCCC1 | inactive
